Assay [1] has as its target T1, N-terminally TAMRA-labeled monoubiquitin (UniProt P0CG48 1-76, TAMRA on the N-terminus). In words: FP; fast phase.
Assay [2] has as its target T1, N-terminally TAMRA-labeled monoubiquitin. In words: FP; slow phase.

B1: USP4 (8-925) wild-type (enzyme)
chain: RERPDAETQKSELGPLMRTTLQRGAQWYLIDSRWFKQWKKYVGFDSWDMYNVGEHNLFPGPIDNSGLFSDPESQTLKEHLIDELDYVLVPTEAWNKLLNWYGCVEGQQPIVRKVVEHGLFVKHCKVEVYLLELKLCENSDPTNVLSCHFSKADTIATIEKEMRKLFNIPAERETRLWNKYMSNTYEQLSKLDNTVQDAGLYQGQVLVIEPQNEDGTWPRQTLQSKSSTAPSRNFTTSPKSSASPYSSVSASLIANGDSTSTCGMHSSGVSRGGSGFSASYNCQEPPSSHIQPGLCGLGNLGNTCFMNSALQCLSNTAPLTDYFLKDEYEAEINRDNPLGMKGEIAEAYAELIKQMWSGRDAHVAPRMFKTQVGRFAPQFSGYQQQDSQELLAFLLDGLHEDLNRVKKKPYLELKDANGRPDAVVAKEAWENHRLRNDSVIVDTFHGLFKSTLVCPECAKVSVTFDPFCYLTLPLPLKKDRVMEVFLVPADPHCRPTQYRVTVPLMGAVSDLCEALSRLSGIAAENMVVADVYNHRFHKIFQMDEGLNHIMPRDDIFVYEVCSTSVDGSECVTLPVYFRERKSRPSSTSSASALYGQPLLLSVPKHKLTLESLYQAVCDRISRYVKQPLPDEFGSSPLEPGACNGSRNSCEGEDEEEMEHQEEGKEQLSETEGSGEDEPGNDPSETTQKKIKGQPCPKRLFTFSLVNSYGTADINSLAADGKLLKLNSRSTLAMDWDSETRRLYYDEQESEAYEKHVSMLQPQKKKKTTVALRDCIELFTTMETLGEHDPWYCPNCKKHQQATKKFDLWSLPKILVVHLKRFSYNRYWRDKLDTVVEFPIRGLNMSEFVCNLSARPYVYDLIAVSNHYGAMGVGHYTAYAKNKLNGKWYYFDDSNVSLASEDQIVTKAAYVLFYQRRDD
Broadly, the koff is a measure of how fast the partners let go of each other. Regarding B1, the koff was determined as 0.49 s⁻¹ in assay [1] and 0.045 s⁻¹ in assay [2].
